Assay results: doi:10.1101/557132

Protein sequences, listed by entry. Tags and fused reporters are not part of them. Residues count along the entry.
UniProt P43220, 24-463: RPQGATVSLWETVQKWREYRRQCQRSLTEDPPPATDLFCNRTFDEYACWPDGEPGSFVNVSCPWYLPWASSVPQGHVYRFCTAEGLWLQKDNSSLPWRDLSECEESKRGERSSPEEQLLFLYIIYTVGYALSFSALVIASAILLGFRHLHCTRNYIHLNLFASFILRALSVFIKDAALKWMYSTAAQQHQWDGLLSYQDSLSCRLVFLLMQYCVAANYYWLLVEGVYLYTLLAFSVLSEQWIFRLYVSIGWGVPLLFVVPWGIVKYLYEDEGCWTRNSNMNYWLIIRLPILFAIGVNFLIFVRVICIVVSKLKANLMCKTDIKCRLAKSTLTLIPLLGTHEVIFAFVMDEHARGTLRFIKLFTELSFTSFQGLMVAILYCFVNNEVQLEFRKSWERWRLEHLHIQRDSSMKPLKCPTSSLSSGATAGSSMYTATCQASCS

Biological target: human SNAP_GLP1R on CHO-K1 cells (human) (UniProt P43220)

## Exendin4(1-39) (peptide)
  cAMP production (cAMP-Glo), positive control: 18.3 nM
